In article PMC5863483, “Low HLA binding of diabetes-associated CD8+ T-cell epitopes is increased by post translational modifications” (BMC Immunology, 2018) one finds IC50 data, which are given here for 6 molecules.

pIC50: −log10 of the molar value. Like-named read-outs stand apart in the source and are kept apart here.

The test addresses HLA-A*02:01 (Homo sapiens, UniProt P04439, D140Y/D185E/D98H/E176V/E277Q/G131W/G231S/I119V/I121R/I166T/I218V/L300P/L318F/N151K/N90K/P208A/P217A/Q86G/Q94H/R138H/R169H/T345S). Nature of the test: HLA-peptide competition binding assay, A*02:01. Conditions: for IC50: read-out: A*02:01 binding (IC50 nM) Modified, post-translationally modified insulin peptide, competition binding assay, a dash indicates IC50 >40,000 nM.

Broadly, the IC50 is the concentration at which inhibition is half-maximal. For `C[C@@H](O)[C@H](NC(=O)[C@H](CCCCN)NC(=O)[C@@H]1CCCN1C(=O)[C@@H](NC(=O)[C@H](Cc1ccc(O)cc1)NC(=O)[C@H](Cc1ccccc1)NC(=O)[C@H](Cc1ccccc1)NC(=O)CN)[C@@H](C)O)C(=O)N[C@@H](CCCNC(N)=O)C(=O)N[C@@H](CCCNC(N)=O)C(=O)O`, the concentration for half-maximal inhibition (IC50) is above 40000 nM.

Usually pIC50 stands for −log10 of the IC50, conventionally taken in molar units. A lower pIC50 goes with a high IC50. Consider `C[C@@H](O)[C@H](NC(=O)[C@H](CCCCN)NC(=O)[C@@H]1CCCN1C(=O)[C@@H](NC(=O)[C@H](Cc1ccc(O)cc1)NC(=O)[C@H](Cc1ccccc1)NC(=O)[C@H](Cc1ccccc1)NC(=O)CNC(=O)[C@H](CCCNC(N)=O)NC(=O)[C@@H](N)CCC(=O)O)[C@@H](C)O)C(=O)O`, for which the pIC50 was 4.44.

For `C[C@@H](O)[C@H](NC(=O)[C@H](CCCCN)NC(=O)[C@@H]1CCCN1C(=O)[C@@H](NC(=O)[C@H](Cc1ccc(O)cc1)NC(=O)[C@H](Cc1ccccc1)NC(=O)[C@H](Cc1ccccc1)NC(=O)CNC(=O)[C@@H](N)CCCNC(N)=O)[C@@H](C)O)C(=O)N[C@@H](CCCNC(N)=O)C(=O)O`, the IC50 was above 40000 nM.

`CC(C)C[C@H](NC(=O)[C@H](C)N)C(=O)N[C@@H](Cc1ccc(O)cc1)C(=O)N[C@@H](CC(C)C)C(=O)N[C@H](C(=O)N[C@@H](CS)C(=O)NCC(=O)N[C@@H](CCC(=O)O)C(=O)N[C@@H](CCCNC(N)=O)C(=O)NCC(=O)O)C(C)C` had a pIC50 of 5.04.

Take `C[C@@H](O)[C@H](NC(=O)[C@H](Cc1ccc(O)cc1)NC(=O)[C@H](Cc1ccccc1)NC(=O)[C@H](Cc1ccccc1)NC(=O)CNC(=O)[C@H](CCCNC(N)=O)NC(=O)[C@H](CCC(=O)O)NC(=O)CN)C(=O)N1CCC[C@H]1C(=O)N[C@@H](CCCCN)C(=O)O`: the IC50 is above 40000 nM.

The molecule `CC(C)C[C@H](NC(=O)[C@H](Cc1ccc(O)cc1)NC(=O)[C@@H](N)CC(C)C)C(=O)N[C@H](C(=O)N[C@@H](CS)C(=O)NCC(=O)N[C@@H](CCC(=O)O)C(=O)N[C@@H](CCCNC(N)=O)C(=O)NCC(=O)N[C@@H](Cc1ccccc1)C(=O)O)C(C)C` gave a negative logarithm of the IC50 (pIC50) of 4.73.
